# Values quoted from earlier work in patent US9782491B2, “Peptide conjugates for treating pain” (priority 2012, dated 2017).
# Settings: carrier peptide; cited from earlier work
substance,measurement,value
transportan [TP],half-life,greater than 72 hrs
